{"sequences": {"note": "Amino acid sequences for entries named in this document (tags omitted). A change or cut given only in a name is not applied to a line headed by its entry.", "UniProt P08922": "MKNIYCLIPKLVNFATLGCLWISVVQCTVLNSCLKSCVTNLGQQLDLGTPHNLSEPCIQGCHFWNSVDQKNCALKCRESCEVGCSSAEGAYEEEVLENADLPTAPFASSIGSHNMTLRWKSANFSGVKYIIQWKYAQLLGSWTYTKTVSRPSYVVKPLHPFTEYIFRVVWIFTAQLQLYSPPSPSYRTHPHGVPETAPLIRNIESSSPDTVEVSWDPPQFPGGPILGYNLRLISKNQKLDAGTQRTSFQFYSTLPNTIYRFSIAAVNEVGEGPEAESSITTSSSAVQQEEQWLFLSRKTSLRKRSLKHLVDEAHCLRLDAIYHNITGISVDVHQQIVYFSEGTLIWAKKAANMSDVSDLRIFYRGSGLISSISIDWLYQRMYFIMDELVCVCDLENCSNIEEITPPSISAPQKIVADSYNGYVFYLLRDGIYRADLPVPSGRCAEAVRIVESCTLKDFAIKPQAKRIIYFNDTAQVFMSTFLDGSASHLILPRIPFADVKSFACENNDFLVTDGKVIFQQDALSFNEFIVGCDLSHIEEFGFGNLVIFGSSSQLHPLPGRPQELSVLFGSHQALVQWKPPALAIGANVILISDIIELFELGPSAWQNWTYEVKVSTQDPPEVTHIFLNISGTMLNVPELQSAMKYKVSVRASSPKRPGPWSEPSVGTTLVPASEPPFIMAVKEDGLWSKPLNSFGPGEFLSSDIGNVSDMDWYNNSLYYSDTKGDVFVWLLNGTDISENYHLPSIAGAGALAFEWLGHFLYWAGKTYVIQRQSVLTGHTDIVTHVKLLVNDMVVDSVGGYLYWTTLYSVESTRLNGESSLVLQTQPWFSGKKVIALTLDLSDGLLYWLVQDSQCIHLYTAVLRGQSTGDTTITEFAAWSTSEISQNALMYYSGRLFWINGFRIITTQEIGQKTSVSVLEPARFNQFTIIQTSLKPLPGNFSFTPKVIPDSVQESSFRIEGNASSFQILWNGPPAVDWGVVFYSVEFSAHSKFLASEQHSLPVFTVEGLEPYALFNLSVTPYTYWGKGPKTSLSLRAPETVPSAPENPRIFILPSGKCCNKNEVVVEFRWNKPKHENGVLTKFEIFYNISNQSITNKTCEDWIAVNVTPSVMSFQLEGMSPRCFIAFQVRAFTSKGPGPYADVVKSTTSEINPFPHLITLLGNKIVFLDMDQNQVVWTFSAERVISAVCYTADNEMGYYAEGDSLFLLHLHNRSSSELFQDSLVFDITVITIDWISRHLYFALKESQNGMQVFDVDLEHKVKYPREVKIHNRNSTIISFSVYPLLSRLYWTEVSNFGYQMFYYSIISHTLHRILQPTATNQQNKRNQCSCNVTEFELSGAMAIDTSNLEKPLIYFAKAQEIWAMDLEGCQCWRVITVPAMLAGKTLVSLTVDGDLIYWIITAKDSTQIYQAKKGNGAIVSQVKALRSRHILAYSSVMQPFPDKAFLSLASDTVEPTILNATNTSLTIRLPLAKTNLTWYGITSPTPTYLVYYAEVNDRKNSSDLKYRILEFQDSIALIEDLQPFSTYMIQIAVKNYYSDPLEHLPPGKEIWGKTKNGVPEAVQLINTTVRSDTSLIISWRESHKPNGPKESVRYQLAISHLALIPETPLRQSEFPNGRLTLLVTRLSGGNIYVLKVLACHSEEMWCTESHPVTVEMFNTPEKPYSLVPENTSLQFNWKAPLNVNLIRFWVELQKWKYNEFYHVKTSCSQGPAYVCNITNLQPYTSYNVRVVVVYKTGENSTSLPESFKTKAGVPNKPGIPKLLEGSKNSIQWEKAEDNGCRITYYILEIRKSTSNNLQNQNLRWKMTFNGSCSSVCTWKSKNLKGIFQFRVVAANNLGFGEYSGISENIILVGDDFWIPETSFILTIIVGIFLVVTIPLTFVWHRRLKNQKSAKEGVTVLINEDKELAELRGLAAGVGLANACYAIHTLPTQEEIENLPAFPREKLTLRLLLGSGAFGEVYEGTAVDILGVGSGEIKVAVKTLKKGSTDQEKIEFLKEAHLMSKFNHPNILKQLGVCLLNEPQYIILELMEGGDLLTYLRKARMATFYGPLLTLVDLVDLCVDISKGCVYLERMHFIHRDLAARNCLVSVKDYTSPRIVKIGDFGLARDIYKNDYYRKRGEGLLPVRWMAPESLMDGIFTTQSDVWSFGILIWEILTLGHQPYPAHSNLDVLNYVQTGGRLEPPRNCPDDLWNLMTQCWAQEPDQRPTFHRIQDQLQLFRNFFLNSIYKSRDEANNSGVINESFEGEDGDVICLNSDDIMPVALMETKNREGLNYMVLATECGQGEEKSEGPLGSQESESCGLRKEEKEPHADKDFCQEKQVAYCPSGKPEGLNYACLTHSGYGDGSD", "UniProt Q7L7X3": "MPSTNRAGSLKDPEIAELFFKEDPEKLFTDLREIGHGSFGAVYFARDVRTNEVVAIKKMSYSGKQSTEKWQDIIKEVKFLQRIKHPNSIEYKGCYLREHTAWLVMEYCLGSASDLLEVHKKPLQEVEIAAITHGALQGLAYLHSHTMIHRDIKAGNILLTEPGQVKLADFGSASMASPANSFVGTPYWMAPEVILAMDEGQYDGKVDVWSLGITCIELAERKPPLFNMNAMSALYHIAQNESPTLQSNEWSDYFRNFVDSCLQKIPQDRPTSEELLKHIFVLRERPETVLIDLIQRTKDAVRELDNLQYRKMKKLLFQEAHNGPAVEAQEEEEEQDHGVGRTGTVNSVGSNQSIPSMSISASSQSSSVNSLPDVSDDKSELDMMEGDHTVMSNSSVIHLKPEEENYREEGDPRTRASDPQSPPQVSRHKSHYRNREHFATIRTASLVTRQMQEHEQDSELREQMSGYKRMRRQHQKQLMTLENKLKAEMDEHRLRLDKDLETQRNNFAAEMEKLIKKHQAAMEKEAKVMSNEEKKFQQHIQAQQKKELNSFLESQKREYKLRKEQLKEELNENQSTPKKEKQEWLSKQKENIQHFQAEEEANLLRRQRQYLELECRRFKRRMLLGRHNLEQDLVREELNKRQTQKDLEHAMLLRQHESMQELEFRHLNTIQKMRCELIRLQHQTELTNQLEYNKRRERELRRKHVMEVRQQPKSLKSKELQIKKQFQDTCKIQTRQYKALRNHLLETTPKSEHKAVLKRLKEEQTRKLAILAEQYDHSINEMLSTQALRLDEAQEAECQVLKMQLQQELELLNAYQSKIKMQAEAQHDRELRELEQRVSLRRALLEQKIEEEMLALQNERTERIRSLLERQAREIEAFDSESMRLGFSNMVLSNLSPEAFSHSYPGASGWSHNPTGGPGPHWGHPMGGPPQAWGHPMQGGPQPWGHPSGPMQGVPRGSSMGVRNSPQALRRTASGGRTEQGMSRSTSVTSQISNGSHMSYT", "UniProt P53779": "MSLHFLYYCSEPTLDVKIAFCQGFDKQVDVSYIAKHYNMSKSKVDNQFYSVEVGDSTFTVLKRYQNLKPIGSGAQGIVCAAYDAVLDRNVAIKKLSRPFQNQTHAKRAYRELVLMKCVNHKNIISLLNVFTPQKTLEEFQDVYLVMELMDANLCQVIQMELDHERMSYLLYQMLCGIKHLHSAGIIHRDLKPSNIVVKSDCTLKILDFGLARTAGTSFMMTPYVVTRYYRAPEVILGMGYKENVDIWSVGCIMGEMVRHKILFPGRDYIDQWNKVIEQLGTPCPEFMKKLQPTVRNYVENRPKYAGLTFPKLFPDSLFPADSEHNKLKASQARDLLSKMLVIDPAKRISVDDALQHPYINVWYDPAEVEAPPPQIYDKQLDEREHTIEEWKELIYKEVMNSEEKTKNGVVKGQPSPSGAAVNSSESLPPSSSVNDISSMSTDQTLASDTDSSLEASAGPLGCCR", "UniProt P27361, whole entry": "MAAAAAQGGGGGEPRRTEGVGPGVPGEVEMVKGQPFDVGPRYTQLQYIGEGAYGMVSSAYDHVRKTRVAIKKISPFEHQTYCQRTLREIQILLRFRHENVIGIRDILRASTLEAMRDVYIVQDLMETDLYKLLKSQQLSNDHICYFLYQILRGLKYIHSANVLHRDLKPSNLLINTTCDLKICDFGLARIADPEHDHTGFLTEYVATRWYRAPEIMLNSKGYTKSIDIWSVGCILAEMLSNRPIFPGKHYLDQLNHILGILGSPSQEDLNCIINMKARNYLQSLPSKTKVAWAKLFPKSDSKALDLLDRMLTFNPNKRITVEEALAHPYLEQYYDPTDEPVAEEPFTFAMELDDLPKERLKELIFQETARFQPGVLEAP", "UniProt Q14680": "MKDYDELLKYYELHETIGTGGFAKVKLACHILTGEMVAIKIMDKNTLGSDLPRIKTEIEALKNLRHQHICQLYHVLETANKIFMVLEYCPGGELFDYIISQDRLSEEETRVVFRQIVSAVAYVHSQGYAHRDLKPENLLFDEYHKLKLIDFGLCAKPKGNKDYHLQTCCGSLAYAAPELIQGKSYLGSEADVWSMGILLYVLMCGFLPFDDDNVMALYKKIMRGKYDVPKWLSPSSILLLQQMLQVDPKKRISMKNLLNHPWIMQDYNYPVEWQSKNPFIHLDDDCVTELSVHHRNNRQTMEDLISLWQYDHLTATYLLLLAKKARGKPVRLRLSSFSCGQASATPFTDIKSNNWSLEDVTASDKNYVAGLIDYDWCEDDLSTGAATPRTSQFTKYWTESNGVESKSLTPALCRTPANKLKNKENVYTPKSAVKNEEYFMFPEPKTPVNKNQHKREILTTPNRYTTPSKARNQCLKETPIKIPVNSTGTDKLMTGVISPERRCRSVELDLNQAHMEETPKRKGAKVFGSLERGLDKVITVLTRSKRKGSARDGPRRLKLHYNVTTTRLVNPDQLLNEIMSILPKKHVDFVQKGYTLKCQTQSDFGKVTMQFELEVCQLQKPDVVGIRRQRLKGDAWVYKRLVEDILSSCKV", "UniProt Q5VT25": "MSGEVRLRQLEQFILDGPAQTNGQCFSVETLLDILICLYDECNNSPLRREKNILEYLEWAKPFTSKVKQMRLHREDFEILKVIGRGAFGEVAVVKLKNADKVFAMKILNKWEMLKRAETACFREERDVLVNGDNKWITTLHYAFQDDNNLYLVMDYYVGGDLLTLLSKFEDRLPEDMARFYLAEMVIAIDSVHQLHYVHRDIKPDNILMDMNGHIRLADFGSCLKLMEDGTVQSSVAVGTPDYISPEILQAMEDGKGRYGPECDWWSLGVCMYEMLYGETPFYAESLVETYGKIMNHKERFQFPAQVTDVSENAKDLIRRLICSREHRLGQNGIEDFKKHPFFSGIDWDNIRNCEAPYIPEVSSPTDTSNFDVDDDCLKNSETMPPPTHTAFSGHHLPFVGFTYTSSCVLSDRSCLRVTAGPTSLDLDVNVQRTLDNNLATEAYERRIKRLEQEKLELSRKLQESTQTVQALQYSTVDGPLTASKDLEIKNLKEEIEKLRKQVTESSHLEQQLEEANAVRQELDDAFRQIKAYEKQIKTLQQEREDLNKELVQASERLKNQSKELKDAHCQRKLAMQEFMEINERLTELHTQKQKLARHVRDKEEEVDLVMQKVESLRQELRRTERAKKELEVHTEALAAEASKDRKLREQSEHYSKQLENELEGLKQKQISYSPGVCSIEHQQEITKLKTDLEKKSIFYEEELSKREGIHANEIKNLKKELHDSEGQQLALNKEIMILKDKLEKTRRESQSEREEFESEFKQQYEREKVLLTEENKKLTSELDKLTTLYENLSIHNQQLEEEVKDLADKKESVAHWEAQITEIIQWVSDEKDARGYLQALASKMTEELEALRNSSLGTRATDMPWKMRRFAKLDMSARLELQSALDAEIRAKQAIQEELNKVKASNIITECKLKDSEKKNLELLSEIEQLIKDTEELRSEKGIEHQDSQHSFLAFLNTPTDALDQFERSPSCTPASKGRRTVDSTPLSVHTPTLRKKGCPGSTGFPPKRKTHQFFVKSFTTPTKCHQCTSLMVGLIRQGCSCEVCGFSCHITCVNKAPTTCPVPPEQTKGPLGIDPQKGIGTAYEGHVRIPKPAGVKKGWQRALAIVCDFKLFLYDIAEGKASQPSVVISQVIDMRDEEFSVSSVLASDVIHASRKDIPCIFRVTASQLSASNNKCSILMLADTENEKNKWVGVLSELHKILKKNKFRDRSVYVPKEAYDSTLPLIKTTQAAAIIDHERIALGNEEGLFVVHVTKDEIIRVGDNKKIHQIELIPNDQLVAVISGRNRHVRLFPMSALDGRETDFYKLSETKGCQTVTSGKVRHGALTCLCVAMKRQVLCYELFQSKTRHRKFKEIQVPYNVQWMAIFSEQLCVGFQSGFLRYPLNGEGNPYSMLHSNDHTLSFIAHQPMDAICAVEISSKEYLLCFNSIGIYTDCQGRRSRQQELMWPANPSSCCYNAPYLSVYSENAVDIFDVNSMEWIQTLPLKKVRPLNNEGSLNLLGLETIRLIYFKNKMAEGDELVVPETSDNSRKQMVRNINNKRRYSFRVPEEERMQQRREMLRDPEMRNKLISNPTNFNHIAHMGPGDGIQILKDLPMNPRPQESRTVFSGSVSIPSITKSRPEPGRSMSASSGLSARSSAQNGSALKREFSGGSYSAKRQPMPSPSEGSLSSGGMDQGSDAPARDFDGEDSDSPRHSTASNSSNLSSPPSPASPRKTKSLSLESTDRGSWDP"}, "source": "ChEMBL document CHEMBL2218924", "about": "“A broad activity screen in support of a chemogenomic map for kinase signalling research and drug discovery” (Biochem J, 2013)", "key": {"[1]": {"molecular_target": "Proto-oncogene tyrosine-protein kinase ROS (Homo sapiens) (UniProt P08922)", "settings": "at 1 µM"}, "[2]": {"molecular_target": "Proto-oncogene tyrosine-protein kinase ROS (Homo sapiens) (UniProt P08922)", "settings": "at 10 µM"}, "[3]": {"molecular_target": "T1, Tyrosine-protein kinase receptor TYRO3 (Homo sapiens) (UniProt Q06418)", "T1 sequence (whole entry)": "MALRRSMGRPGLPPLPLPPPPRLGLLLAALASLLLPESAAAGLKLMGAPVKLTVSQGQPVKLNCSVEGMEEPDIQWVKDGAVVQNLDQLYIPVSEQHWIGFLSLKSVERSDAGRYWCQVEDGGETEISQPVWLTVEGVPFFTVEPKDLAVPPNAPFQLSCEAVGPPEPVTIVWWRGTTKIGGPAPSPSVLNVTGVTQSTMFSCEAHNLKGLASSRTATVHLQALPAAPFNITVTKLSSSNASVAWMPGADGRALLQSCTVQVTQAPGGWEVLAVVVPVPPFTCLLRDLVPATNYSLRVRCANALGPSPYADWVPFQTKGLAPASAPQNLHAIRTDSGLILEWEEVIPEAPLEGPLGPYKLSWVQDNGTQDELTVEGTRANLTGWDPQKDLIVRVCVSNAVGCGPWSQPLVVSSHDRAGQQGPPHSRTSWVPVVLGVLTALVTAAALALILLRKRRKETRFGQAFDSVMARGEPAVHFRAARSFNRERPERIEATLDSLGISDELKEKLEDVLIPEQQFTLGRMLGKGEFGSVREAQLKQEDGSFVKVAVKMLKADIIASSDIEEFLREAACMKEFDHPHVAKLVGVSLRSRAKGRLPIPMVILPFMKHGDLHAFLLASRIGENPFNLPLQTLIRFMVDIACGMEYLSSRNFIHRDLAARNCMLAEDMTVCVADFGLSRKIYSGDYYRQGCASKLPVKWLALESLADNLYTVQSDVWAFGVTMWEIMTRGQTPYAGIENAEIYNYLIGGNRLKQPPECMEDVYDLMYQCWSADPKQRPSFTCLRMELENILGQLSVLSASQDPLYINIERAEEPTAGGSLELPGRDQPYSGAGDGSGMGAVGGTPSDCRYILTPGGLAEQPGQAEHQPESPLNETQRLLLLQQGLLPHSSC", "settings": "at 1 µM"}, "[4]": {"molecular_target": "T1, Tyrosine-protein kinase receptor TYRO3 (Homo sapiens)", "settings": "at 10 µM"}, "[5]": {"molecular_target": "Mitogen-activated protein kinase 11 (Homo sapiens) (UniProt Q15759)", "settings": "at 1 µM"}, "[6]": {"molecular_target": "Mitogen-activated protein kinase 11 (Homo sapiens) (UniProt Q15759)", "settings": "at 10 µM"}, "[7]": {"molecular_target": "T2, Mitogen-activated protein kinase 13 (Homo sapiens) (UniProt O15264)", "T2 sequence (whole entry)": "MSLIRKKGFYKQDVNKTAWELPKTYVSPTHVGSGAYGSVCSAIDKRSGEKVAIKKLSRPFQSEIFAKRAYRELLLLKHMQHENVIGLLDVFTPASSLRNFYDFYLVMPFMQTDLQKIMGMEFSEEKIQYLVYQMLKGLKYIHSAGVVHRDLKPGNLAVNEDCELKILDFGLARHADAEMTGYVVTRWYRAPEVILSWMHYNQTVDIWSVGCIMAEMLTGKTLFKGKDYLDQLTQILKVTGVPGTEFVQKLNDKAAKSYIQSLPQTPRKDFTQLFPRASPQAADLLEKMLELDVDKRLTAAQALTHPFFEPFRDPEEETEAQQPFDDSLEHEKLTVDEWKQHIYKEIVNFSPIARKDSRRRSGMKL", "settings": "at 10 µM"}, "[8]": {"molecular_target": "Serine/threonine-protein kinase Sgk3 (Homo sapiens) (UniProt Q96BR1)", "settings": "at 1 µM"}, "[9]": {"molecular_target": "SRSF protein kinase 1 (Homo sapiens) (UniProt Q96SB4)", "settings": "at 1 µM"}, "[10]": {"molecular_target": "Serine/threonine-protein kinase TAO1 (Homo sapiens) (UniProt Q7L7X3)", "settings": "at 1 µM"}, "[11]": {"molecular_target": "T3, TGF-beta receptor type-1 (Homo sapiens) (UniProt P36897)", "T3 sequence (whole entry)": "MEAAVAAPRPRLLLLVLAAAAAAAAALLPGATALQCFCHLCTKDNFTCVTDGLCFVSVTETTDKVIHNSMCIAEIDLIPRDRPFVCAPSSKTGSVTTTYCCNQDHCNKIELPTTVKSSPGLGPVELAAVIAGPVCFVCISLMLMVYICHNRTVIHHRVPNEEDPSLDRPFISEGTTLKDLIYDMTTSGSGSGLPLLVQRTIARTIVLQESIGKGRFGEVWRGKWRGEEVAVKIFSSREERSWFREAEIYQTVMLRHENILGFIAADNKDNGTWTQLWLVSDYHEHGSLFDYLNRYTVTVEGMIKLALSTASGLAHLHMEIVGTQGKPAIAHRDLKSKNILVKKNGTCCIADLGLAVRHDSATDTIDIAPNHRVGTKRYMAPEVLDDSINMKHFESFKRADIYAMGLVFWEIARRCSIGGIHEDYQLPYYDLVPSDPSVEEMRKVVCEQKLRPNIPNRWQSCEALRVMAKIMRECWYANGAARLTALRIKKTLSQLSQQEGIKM", "settings": "at 10 µM"}, "[12]": {"molecular_target": "Insulin-like growth factor 1 receptor (Homo sapiens) (UniProt P08069)", "settings": "at 10 µM"}, "[13]": {"molecular_target": "Inhibitor of nuclear factor kappa-B kinase subunit beta (Homo sapiens) (UniProt O14920)", "settings": "at 1 µM"}, "[14]": {"molecular_target": "Inhibitor of nuclear factor kappa-B kinase subunit beta (Homo sapiens) (UniProt O14920)", "settings": "at 10 µM"}, "[15]": {"molecular_target": "Tyrosine-protein kinase ITK/TSK (Homo sapiens) (UniProt Q08881)", "settings": "at 1 µM"}, "[16]": {"molecular_target": "Mitogen-activated protein kinase 10 (Homo sapiens) (UniProt P53779)", "settings": "at 1 µM"}, "[17]": {"molecular_target": "Tyrosine-protein kinase Lck (Homo sapiens) (UniProt P06239)", "settings": "at 1 µM"}, "[18]": {"molecular_target": "Tyrosine-protein kinase Lyn (Homo sapiens) (UniProt P07948)", "settings": "at 1 µM"}, "[19]": {"molecular_target": "Mitogen-activated protein kinase 3 (Homo sapiens) (UniProt P27361)", "settings": "at 1 µM"}, "[20]": {"molecular_target": "MAP kinase-activated protein kinase 2 (Homo sapiens) (UniProt P49137)", "settings": "at 10 µM"}, "[21]": {"molecular_target": "MAP kinase-activated protein kinase 3 (Homo sapiens) (UniProt Q16644)", "settings": "at 10 µM"}, "[22]": {"molecular_target": "Maternal embryonic leucine zipper kinase (Homo sapiens) (UniProt Q14680)", "settings": "at 1 µM"}, "[23]": {"molecular_target": "T4, Dual specificity mitogen-activated protein kinase kinase 6 (Homo sapiens) (UniProt P52564)", "T4 sequence (whole entry)": "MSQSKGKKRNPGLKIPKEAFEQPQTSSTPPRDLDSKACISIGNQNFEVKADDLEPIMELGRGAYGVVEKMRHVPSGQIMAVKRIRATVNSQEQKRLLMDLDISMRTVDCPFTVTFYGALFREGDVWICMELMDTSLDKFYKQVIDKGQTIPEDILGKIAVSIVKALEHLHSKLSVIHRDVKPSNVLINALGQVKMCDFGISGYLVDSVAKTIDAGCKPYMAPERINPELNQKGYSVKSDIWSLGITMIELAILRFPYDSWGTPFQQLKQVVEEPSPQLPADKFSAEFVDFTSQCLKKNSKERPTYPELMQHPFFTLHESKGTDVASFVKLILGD", "settings": "at 1 µM"}, "[24]": {"molecular_target": "T4, Dual specificity mitogen-activated protein kinase kinase 6 (Homo sapiens)", "settings": "at 10 µM"}, "[25]": {"molecular_target": "Serine/threonine-protein kinase MRCK alpha (Homo sapiens) (UniProt Q5VT25)", "settings": "at 1 µM"}, "[26]": {"molecular_target": "Serine/threonine-protein kinase MRCK alpha (Homo sapiens) (UniProt Q5VT25)", "settings": "at 10 µM"}, "[27]": {"molecular_target": "Tyrosine-protein kinase Mer (Homo sapiens) (UniProt Q12866)", "settings": "at 1 µM"}}, "note": "For part of these data: Most of the strong results are listed elsewhere, so they are rarer here than in the full data. This is a selection; strong and weak results do not stand in their true shares.", "data": [{"smiles": "O=C1NC(=O)C(c2cn(CCCn3ccnc3)c3ccccc23)=C1Nc1ccccc1", "values": [{"measurement": "residual activity", "setting": "[1]", "value": 91, "unit": "%"}, {"measurement": "residual activity", "setting": "[2]", "value": 86, "unit": "%"}, {"measurement": "residual activity", "setting": "[3]", "value": 95, "unit": "%"}, {"measurement": "residual activity", "setting": "[4]", "value": 101, "unit": "%"}, {"measurement": "residual activity", "setting": "[5]", "value": 97, "unit": "%"}, {"measurement": "residual activity", "setting": "[6]", "value": 102, "unit": "%"}, {"measurement": "residual activity", "setting": "[7]", "value": 91, "unit": "%"}, {"measurement": "residual activity", "setting": "[8]", "value": 88, "unit": "%"}, {"measurement": "residual activity", "setting": "[9]", "value": 99, "unit": "%"}, {"measurement": "residual activity", "setting": "[10]", "value": 87, "unit": "%"}, {"measurement": "residual activity", "setting": "[11]", "value": 83, "unit": "%"}, {"measurement": "residual activity", "setting": "[12]", "value": 81, "unit": "%"}, {"measurement": "residual activity", "setting": "[13]", "value": 95, "unit": "%"}, {"measurement": "residual activity", "setting": "[14]", "value": 95, "unit": "%"}, {"measurement": "residual activity", "setting": "[15]", "value": 97, "unit": "%"}, {"measurement": "residual activity", "setting": "[16]", "value": 84, "unit": "%"}, {"measurement": "residual activity", "setting": "[17]", "value": 102, "unit": "%"}, {"measurement": "residual activity", "setting": "[18]", "value": 86, "unit": "%"}, {"measurement": "residual activity", "setting": "[19]", "value": 85, "unit": "%"}, {"measurement": "residual activity", "setting": "[20]", "value": 84, "unit": "%"}, {"measurement": "residual activity", "setting": "[21]", "value": 84, "unit": "%"}, {"measurement": "residual activity", "setting": "[22]", "value": 89, "unit": "%"}, {"measurement": "residual activity", "setting": "[23]", "value": 90, "unit": "%"}, {"measurement": "residual activity", "setting": "[24]", "value": 85, "unit": "%"}, {"measurement": "residual activity", "setting": "[25]", "value": 99, "unit": "%"}, {"measurement": "residual activity", "setting": "[26]", "value": 89, "unit": "%"}, {"measurement": "residual activity", "setting": "[27]", "value": 95, "unit": "%"}]}]}
